SMILES strings stand for the structures.

Amino acid sequences for entries named in this document (tags omitted). Residues count along the entry.
UniProt P08709, 61-212 limits assumed: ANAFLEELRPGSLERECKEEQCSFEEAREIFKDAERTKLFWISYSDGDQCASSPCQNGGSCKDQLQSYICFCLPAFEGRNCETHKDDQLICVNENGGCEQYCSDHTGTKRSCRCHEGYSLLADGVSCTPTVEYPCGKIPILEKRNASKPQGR
UniProt P08709, 213-466 limits assumed: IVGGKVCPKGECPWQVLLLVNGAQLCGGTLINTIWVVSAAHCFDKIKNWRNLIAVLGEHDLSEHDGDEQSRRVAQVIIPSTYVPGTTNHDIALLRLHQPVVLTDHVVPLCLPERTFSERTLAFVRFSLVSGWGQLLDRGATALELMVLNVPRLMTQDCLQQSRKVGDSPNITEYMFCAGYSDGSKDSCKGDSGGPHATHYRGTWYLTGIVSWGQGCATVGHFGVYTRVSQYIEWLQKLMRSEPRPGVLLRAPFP
UniProt P13726, 33-295 partner limits assumed: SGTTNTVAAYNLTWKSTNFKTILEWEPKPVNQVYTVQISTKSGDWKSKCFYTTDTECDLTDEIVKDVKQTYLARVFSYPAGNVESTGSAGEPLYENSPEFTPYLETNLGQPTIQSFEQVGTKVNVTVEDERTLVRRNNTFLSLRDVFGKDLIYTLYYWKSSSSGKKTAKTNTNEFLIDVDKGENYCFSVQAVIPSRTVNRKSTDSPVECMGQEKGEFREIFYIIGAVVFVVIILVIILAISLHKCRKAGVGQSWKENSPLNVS

The test deals with FVIIa (Homo sapiens, UniProt P08709). Put plainly: FVIIa Ki (25° C.): FVIIa peptide substrate assay. Conditions: read-out: FVIIa Ki, S2288 peptide substrate, full-length human TF. As to the method: The effectiveness of compounds of the present invention as inhibitors of the coagulation Factors, VIIa, IXa, Xa, XIa, XIIa, plasma kallikrein or thrombin, tissue kallikrein and activated protein C, can be determined using a relevant purified serine protease, respectively, and an appropriate synthetic substrate. The rate of hydrolysis of the chromogenic or fluorogenic substrate by the relevant serine protease was measured both in the absence and presence of compounds of the present invention. […] A decrease in the rate of absorbance or fluorescence change in the presence of inhibitor is indicative of enzyme inhibition. Such methods are known to one skilled in the art. The results of this assay are expressed as the inhibitory constant, Ki.
a. FVIIa Ki (25° C.): FVIIa Peptide Substrate Assay
S2288 (range of concentrations) and FVIIa inhibitor were incubated for 15 minutes (min) at 25° C. Reactions were initiated by addition of a solution of full-length human TF (6 nM), FVIIa (0.75 nM), and PCPS (25 μM). FVIIa hydrolyses S2288, which was monitored for up to 60 min at 405 nm. […]

What is called Ki is a dissociation constant, usually derived from enzyme kinetics or from competition with a known ligand. Regarding `CN1Cc2cc(ccc2S(=O)(=O)C2CC2)NC(=O)COCc2cccc(c2)C(Nc2ccc3c(N)ncc(F)c3c2)C1=O` (stereo not shown), the Ki was 265 nM.

The values are drawn from patent US9657006B2, “Macrocyclic factor VIIa inhibitors” (BRISTOL-MYERS SQUIBB COMPANY, priority 2013, dated 2017).
